Measured values: US20250333410A1, “COMPOUND FOR INHIBITING OR DEGRADING BCL6 AND USE THEREOF IN PHARMACEUTICS” (XIZANG HAISCO PHARMACEUTICAL CO., LTD., priority 2022, published 2025)

Biological target: Bcl6 (Homo sapiens (Human), UniProt P41182)
Experiment: Bcl-6 protein degradation experiment in Farage cells
Type: cell-based
Settings: read-out: Bcl6 DC50, 24 hours, tested form: TFA

For `CNC(=O)COc1cc2cc(Nc3nc(N4CCC(CN5CCN6c7ccc(C8CCC(=O)NC8=O)cc7CCC6C5)CC4)ncc3Cl)ccc2n(C)c1=O` (single isomer, unassigned), the DC50 was < 10 nM.
